# From patent US11905324B2, “Fluorescent fusion polypeptide capable of detecting phosphorylation of cellular membrane receptors by GRKs (G-protein receptor kinases) and/or receptor tyrosine kinases (RTKs)” (Innovative Technologies in Biological Systems SL, priority 2017, dated 2024)
# Sequences of proteins named here, by UniProt entry; tags and fusion partners are left off.
# UniProt P30989, whole entry, species assumed: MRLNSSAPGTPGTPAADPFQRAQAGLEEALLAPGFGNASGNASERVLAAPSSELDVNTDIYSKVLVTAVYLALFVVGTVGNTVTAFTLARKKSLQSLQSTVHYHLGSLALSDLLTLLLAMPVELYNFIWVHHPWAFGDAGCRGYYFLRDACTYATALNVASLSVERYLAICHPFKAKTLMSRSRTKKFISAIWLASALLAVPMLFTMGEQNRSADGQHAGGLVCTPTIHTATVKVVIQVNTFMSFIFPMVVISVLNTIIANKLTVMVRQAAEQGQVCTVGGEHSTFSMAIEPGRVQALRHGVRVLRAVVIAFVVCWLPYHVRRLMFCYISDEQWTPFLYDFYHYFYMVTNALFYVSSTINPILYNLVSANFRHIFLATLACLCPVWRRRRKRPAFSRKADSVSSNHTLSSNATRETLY
# Target: T1, NTSR1 (Homo sapiens, UniProt P30989)
# T1 construct: expressed in transfected cells
# Assay: Anti-TAC immunofluorescence assay of NTSR1 ArrestinNomad biosensor cell line
# Format: cell-based
# Details: NTS 1 μM, 24 hours
# Experimental: After overnight incubation, cell media was removed and it was performed a 15 minutes incubation with FBS (Sigma-Aldrich) at 4° C. Followed by a 90 minutes incubation at 4° C. with FITC anti-human CD25 antibody (Biolegend) at 1:20 concentration. Cells were then washed twice with PBS (Sigma-Aldrich). Fluorescent images were acquired in the BD PATHWAY 855 High-Content automated image platform (Franklin Lakes, NJ) with a ×20 dry objective. The excitation and emission filters used were the following: for FITC, 488/10 and 540/20; and for FP650, 548/20 and 570LP.
substance,measurement,value
NTS,Localization of ArrestinNomad biosensor after addition of the agonist,relocalization of the biosensor from the plasma membrane to vesicle trafficking pathways
